From article PMC11320734 (ACS Pharmacology & Translational Science, 2024)
Like-named read-outs stand apart in the source and are kept apart here.

Chains of the proteins cited; added tags and fusions are not shown. Lines headed by an entry give the natural chain unless they say otherwise; changes in a name come on top.
UniProt P47936: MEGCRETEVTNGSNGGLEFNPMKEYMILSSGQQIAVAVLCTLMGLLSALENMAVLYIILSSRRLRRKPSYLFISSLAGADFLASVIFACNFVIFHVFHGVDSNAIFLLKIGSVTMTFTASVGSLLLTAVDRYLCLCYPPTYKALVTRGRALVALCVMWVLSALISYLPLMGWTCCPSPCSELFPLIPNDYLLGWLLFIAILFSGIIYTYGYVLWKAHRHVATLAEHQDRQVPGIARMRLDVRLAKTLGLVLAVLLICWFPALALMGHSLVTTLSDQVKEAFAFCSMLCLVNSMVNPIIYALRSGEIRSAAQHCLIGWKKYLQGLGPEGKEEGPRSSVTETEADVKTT

Target: CB2R in wild-type mouse spleen membranes (Mus musculus, UniProt P47936)
Conditions: WT mouse spleen membranes

SMILES | reduction of [3H]-RNB-61 radioactivity (competitor 1 μM) | reduction of [3H]-RNB-61 radioactivity (competitor 10 μM)
Cc1c(C(=O)NN2CCCCC2)nn(-c2ccc(Cl)cc2Cl)c1-c1ccc(Cl)cc1 [SR1] | did not result in a significant difference | –
Cc1c(C(=O)c2cccc3ccccc23)c2cccc3c2n1[C@H](CN1CCOCC1)CO3 [WIN55,212–2] | – | significant reduction
